Measured values published in PubChem BioAssay (NCI).
The list shows a part of the results, in another mix than the full data. Some salts or complexes appear as unconnected parts, following the source record. The source holds several records for some structures; these can differ, active in one and inactive in another. Activity calls are given as the source filed them. Rule as the data show it: active = growth inhibition above about 70%; inactive = the rest.

Tests used:
[1] = NCI Yeast Anticancer Drug Screen. Data for the bub3 strain (AID 167); conditions: S. cerevisiae bub3 mutant strain, active compounds read high
[2] = NCI Yeast Anticancer Drug Screen. Data for the mlh1 rad18 strain (AID 175); conditions: S. cerevisiae mlh1 rad18 strain growth inhibition, active compounds read high
[3] = NCI Yeast Anticancer Drug Screen. Data for the rad18 strain (AID 177); conditions: S. cerevisiae rad18 mutant growth inhibition, active compounds read high
Procedure, shortened: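 Yeast carrying a defined DNA damage repair alteration were exposed to compounds. Growth inhibition was expressed relative to vehicle-treated controls.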

[4] = NCI Yeast Anticancer Drug Screen. Data for the rad50 strain (AID 155);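 also: 0% = growth of vehicle-only cultures of the same strain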; conditions: S. cerevisiae rad50 strain growth inhibition, active compounds read high
[5] = NCI Yeast Anticancer Drug Screen. Data for the mec2-1 strain (AID 157); conditions: S. cerevisiae mec2-1 strain, active compounds read high
[6] = NCI Yeast Anticancer Drug Screen. Data for the sgs1 mgt1 strain (AID 161);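 also: 0% = growth of cultures given vehicle only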; conditions: S. cerevisiae sgs1 mgt1 strain, active compounds read high
[7] = NCI Yeast Anticancer Drug Screen. Data for the cln2 rad14 strain (AID 165);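 also: 0% = growth equal to vehicle treated cultures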; conditions: S. cerevisiae cln2 rad14 strain, active compounds read high
[8] = NCI Yeast Anticancer Drug Screen. Data for the mlh1 strain (AID 171);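 also: 0% = growth of vehicle-treated control cultures of the same strain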; conditions: S. cerevisiae mlh1 strain growth inhibition, active compounds read high
Procedure, shortened: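 Yeast carrying a defined genetic alteration in DNA damage repair or cell cycle control were exposed to test compounds. Growth inhibition was measured relative to vehicle-treated controls.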

[9] = at 50.0 µM (retest, dose inferred, filed as 5.0)
[10] = at 5.0 µM (retest, dose inferred, filed as 0.5)

Measured: growth inhibition

[Au].[C-]#N.[C-]#N
inactive: [1]; at 11.0 µM -18% | [1]; at 33.0 µM -16% | [1]; [9] 5% | [1]; at 50.0 µM -20.9% | [1]; at 100.0 µM 4% | [2]; [10] 25% | [2]; [9] 42% | [2]; at 50.0 µM -9.1% | [3]; at 1.2 µM 5% | [3]; at 3.7 µM 2% | [3]; at 11.0 µM -20% | [3]; at 33.0 µM 41% | [3]; at 100.0 µM 8%

CC(O)C1CCCCN1C.O=[N+]([O-])c1cc([N+](=O)[O-])c(O)c([N+](=O)[O-])c1
inactive: [4]; [10] 2% | [4]; [9] 8% | [4]; at 50.0 µM 6% | [5]; [10] 14% | [5]; [9] 35% | [5]; at 50.0 µM 3.1% | [6]; [10] 1% | [6]; [9] -29% | [6]; at 50.0 µM 44% | [7]; [10] -7% | [7]; [9] 0% | [7]; at 50.0 µM -2.4% | [1]; [10] -8% | [1]; [9] -10% | [1]; at 50.0 µM 8.35% | [2]; [10] -3% | [2]; [9] -1% | [2]; at 50.0 µM -8.9%

O=[N+]([O-])C1([N+](=O)[O-])CCCc2nonc21
inactive: [4]; [10] 21% | [4]; [9] 53% | [5]; [10] 7% | [5]; [9] 32% | [6]; [10] 22% | [6]; [9] 58% | [7]; [10] 16% | [7]; [9] 44% | [1]; [10] 4% | [1]; [9] 39% | [2]; [10] 25% | [2]; [9] 55%
active: [4]; at 50.0 µM 90.3% | [5]; at 50.0 µM 71% | [6]; at 50.0 µM 91.8% | [7]; at 50.0 µM 83% | [1]; at 50.0 µM 86.4% | [2]; at 50.0 µM 89.3%

O=C1c2cc([N+](=O)[O-])ccc2-c2c1cc([N+](=O)[O-])cc2[N+](=O)[O-].c1cc2c3c(c1)ccc1cccc(c13)COC2
inactive: [4]; [10] 10% | [4]; [9] 26% | [4]; at 50.0 µM 35.6% | [5]; [10] -3% | [5]; [9] 11% | [5]; at 50.0 µM 35.4% | [6]; [10] 21% | [6]; [9] 39% | [6]; at 50.0 µM 21% | [7]; [10] 6% | [7]; [9] -2% | [7]; at 50.0 µM -1.4% | [1]; [10] 1% | [1]; [9] 6% | [1]; at 50.0 µM 18.7% | [2]; [10] 14% | [2]; [9] 26% | [2]; at 50.0 µM 62.2%

C/C([N+](=O)[O-])=[N+](/[O-])C(C)([N+](=O)[O-])[N+](=O)[O-]
active: [4]; [10] 78% | [4]; [9] 99% | [4]; at 50.0 µM 99.5% | [5]; [10] 76% | [5]; [9] 99% | [5]; at 50.0 µM 99.7% | [6]; [10] 75% | [6]; [9] 99% | [6]; at 50.0 µM 99.5% | [7]; [10] 70% | [7]; [9] 99% | [7]; at 50.0 µM 99.2% | [1]; [10] 90% | [1]; [9] 99% | [1]; at 50.0 µM 99.5% | [2]; [10] 89% | [2]; [9] 98% | [2]; at 50.0 µM 99.5%

Cc1ccc2ccc3ccc4ccccc4c3c2c1.O=C1c2cc([N+](=O)[O-])ccc2-c2c1cc([N+](=O)[O-])cc2[N+](=O)[O-]
active: [4]; at 50.0 µM 89% | [5]; at 50.0 µM 79% | [6]; at 50.0 µM 81.6% | [1]; at 50.0 µM 89.3% | [2]; at 50.0 µM 88.6%
inactive: [4]; at 1.2 µM 1% | [4]; at 3.7 µM 5% | [4]; [10] 14% | [4]; at 11.0 µM 11% | [4]; at 33.0 µM 18% | [4]; [9] 51% | [4]; at 100.0 µM 20% | [5]; at 1.2 µM -3% | [5]; at 3.7 µM 3% | [5]; [10] 11% | [5]; at 11.0 µM 9% | [5]; at 33.0 µM 17% | [5]; [9] 31% | [5]; at 100.0 µM 31% | [6]; [10] 20% | [6]; [9] 55% | [7]; [10] 2% | [7]; [9] 4% | [7]; at 50.0 µM 13.2% | [1]; at 1.2 µM -2% | [1]; at 3.7 µM -2% | [1]; [10] 6% | [1]; at 11.0 µM -1% | [1]; at 33.0 µM 7% | [1]; [9] 31% | [1]; at 100.0 µM 7% | [8]; at 1.2 µM -1% | [8]; at 3.7 µM 1% | [8]; at 11.0 µM 5% | [8]; at 33.0 µM 11% | [8]; at 100.0 µM 24% | [2]; [10] 30% | [2]; [9] 50%

CC1=CC2OC3CC4OC(=O)/C=C/C=C/C(=O)OCC/C(CO)=C/C(=O)OCC2(CC1)C4(C)C31CO1 (centres undefined)
active: [4]; [10] 98% | [4]; [9] 98% | [4]; at 50.0 µM 92.2% | [5]; [10] 99% | [5]; [9] 99% | [5]; at 50.0 µM 94.5% | [6]; [10] 100% | [6]; [9] 99% | [6]; at 50.0 µM 94% | [7]; [10] 99% | [7]; [9] 99% | [7]; at 50.0 µM 92% | [1]; [10] 99% | [1]; [9] 99% | [1]; at 50.0 µM 92.8% | [2]; [10] 97% | [2]; [9] 98% | [2]; at 50.0 µM 91.6%

Cc1cc([N+](=O)[O-])ccc1[N+](=O)[O-]
active: [4]; [9] 97% | [4]; at 50.0 µM 89.9% | [5]; [9] 98% | [5]; at 50.0 µM 91.6% | [6]; [9] 98% | [6]; at 50.0 µM 92.4% | [7]; at 50.0 µM 86.8% | [1]; [9] 98% | [1]; at 50.0 µM 89.8% | [2]; [9] 97% | [2]; at 50.0 µM 88.1%
inactive: [4]; [10] 12% | [5]; [10] 7% | [6]; [10] -8% | [7]; [10] 16% | [7]; [9] 46% | [1]; [10] -3% | [2]; [10] -33%
